This experiment concerns the target MAb 1226S31.3. The experiment is described as follows: inhibition enzyme immunoassay: inhibition of MAb binding to surface bound R-(-)-oxaprotiline-mucin conjugate. Details: species or system mouse. As to conditions: therapeutic drugs and biogenic amines, 1 µM-150 pM, preincubated overnight.

A word on the IC50: it is the concentration that gives 50% inhibition. A lower IC50 goes with higher potency. Regarding `CNC1=Nc2ccc(Cl)cc2C(c2ccccc2)=[N+]([O-])C1` [Chlordiazepoxide, 7-chloro-N-methyl-5-phenyl-3H-1,4-benzodi-azepine-2-amine-4-oxide], the IC50 is greater than 1000 nM.
As for `NC(=O)N1c2ccccc2C=Cc2ccccc21` [Carbamazepine, 5H-dibenzo[b,f]azepine-5-carboxamide], the figure is greater than 1000 nM.

Values taken from patent EP0392976A1, “Monoclonal antibodies to tetracyclic compounds, processes for their production, and applications” (CIBA-GEIGY AG, priority 1989, dated 1990).
